Laboratory results taken from ChEMBL document CHEMBL3885861, “Open TG-GATES”.
“And” between values parts separate entries of the source, which are not always exact repeats. Equal entries are not always repeated.

Experiments:
Rattus norvegicus [1] = organism: Rattus norvegicus; assay: Open TG-GATES - Regimen: Daily Repeat; assay type: toxicity, organism-based, Sprague-Dawley; parameters: regimen Daily Repeat, gender Male, age 6 weeks; settings: in vivo, po, route gavage; for A/G: tissue Plasma; for MCH: tissue Blood
Rattus norvegicus [2] = organism: Rattus norvegicus; assay: Open TG-GATES - Regimen: Single; assay type: toxicity, organism-based, Sprague-Dawley; parameters: regimen Single, gender Male, age 6 weeks; settings: in vivo, po, route gavage; for MCH: tissue Blood
[3] = 0 mg/kg, 72 h, dose level Control, time 3 day
[4] = 0 mg/kg, […], dose level Control, time 7 day
[5] = 0 mg/kg, […], dose level Control, time 14 day
[6] = 0 mg/kg, […], dose level Control, time 28 day
[7] = 0 mg/kg, 3 h, tissue Plasma, dose level Control
[8] = 0 mg/kg, 6 h, tissue Plasma, dose level Control
[9] = 0 mg/kg, 9 h, tissue Plasma, dose level Control
[10] = 0 mg/kg, 24 h, tissue Plasma, dose level Control
[11] = 5 mg/kg, 9 h, tissue Plasma, dose level Middle

O=P1(N(CCCl)CCCl)NCCCO1 (stereo unspecified) [CYCLOPHOSPHAMIDE ANHYDROUS]
A/G (Rattus norvegicus [1]; [3]): 1.3 | A/G (Rattus norvegicus [1]; [4]): 1.1 | A/G (Rattus norvegicus [1]; [5]): 1.1 | A/G (Rattus norvegicus [1]; [6]): 1 | A/G (Rattus norvegicus [1]; 2 mg/kg, 72 h, dose level Low, time 3 day): 1.2 | A/G (Rattus norvegicus [1]; 2 mg/kg, […], dose level Low, time 7 day): 1.3 | A/G (Rattus norvegicus [1]; 2 mg/kg, […], dose level Low, time 14 day): 1.1 | A/G (Rattus norvegicus [1]; 2 mg/kg, […], dose level Low, time 28 day): 1 | A/G (Rattus norvegicus [1]; 5 mg/kg, 72 h, dose level Middle, time 3 day): 1.2 | A/G (Rattus norvegicus [1]; 5 mg/kg, […], dose level Middle, time 7 day): 1.2 | A/G (Rattus norvegicus [1]; 5 mg/kg, […], dose level Middle, time 14 day): 1.1 | A/G (Rattus norvegicus [1]; 5 mg/kg, […], dose level Middle, time 28 day): 1.1 | A/G (Rattus norvegicus [1]; 15 mg/kg, 72 h, dose level High, time 3 day): 1.1 | A/G (Rattus norvegicus [1]; 15 mg/kg, […], dose level High, time 7 day): 1.1 | A/G (Rattus norvegicus [1]; 15 mg/kg, […], dose level High, time 14 day): 1.1 | A/G (Rattus norvegicus [1]; 15 mg/kg, […], dose level High, time 28 day): 1.1 | A/G (Rattus norvegicus [2]; [7]): 1.1 and 0.9 | A/G (Rattus norvegicus [2]; [8]): 1.1 and 0.9 | A/G (Rattus norvegicus [2]; [9]): 1.2 and 0.9 | A/G (Rattus norvegicus [2]; [10]): 1.1 and 0.9 | A/G (Rattus norvegicus [2]; 2 mg/kg, 3 h, tissue Plasma, dose level Low): 1.2 | A/G (Rattus norvegicus [2]; 2 mg/kg, 6 h, tissue Plasma, dose level Low): 1.2 | A/G (Rattus norvegicus [2]; 2 mg/kg, 9 h, tissue Plasma, dose level Low): 1.3 | A/G (Rattus norvegicus [2]; 2 mg/kg, 24 h, tissue Plasma, dose level Low): 1.2 | A/G (Rattus norvegicus [2]; 5 mg/kg, 3 h, tissue Plasma, dose level Middle): 1.2 | A/G (Rattus norvegicus [2]; 5 mg/kg, 6 h, tissue Plasma, dose level Middle): 1.2 | A/G (Rattus norvegicus [2]; [11]): 1.2 | TG (Rattus norvegicus [2]; [11]): 44.2 mg/dL | A/G (Rattus norvegicus [2]; 5 mg/kg, 24 h, tissue Plasma, dose level Middle): 1.2 | A/G (Rattus norvegicus [2]; 15 mg/kg, 3 h, tissue Plasma, dose level High): 1.2 | A/G (Rattus norvegicus [2]; 15 mg/kg, 3 h, tissue Plasma, dose level Low): 0.9 | A/G (Rattus norvegicus [2]; 15 mg/kg, 6 h, tissue Plasma, dose level High): 1.2 | A/G (Rattus norvegicus [2]; 15 mg/kg, 6 h, tissue Plasma, dose level Low): 0.9 | A/G (Rattus norvegicus [2]; 15 mg/kg, 9 h, tissue Plasma, dose level High): 1.2 | A/G (Rattus norvegicus [2]; 15 mg/kg, 9 h, tissue Plasma, dose level Low): 0.9 | A/G (Rattus norvegicus [2]; 15 mg/kg, 24 h, tissue Plasma, dose level High): 1.3 | A/G (Rattus norvegicus [2]; 15 mg/kg, 24 h, tissue Plasma, dose level Low): 0.9 | A/G (Rattus norvegicus [2]; 50 mg/kg, 3 h, tissue Plasma, dose level Middle): 0.9 | A/G (Rattus norvegicus [2]; 50 mg/kg, 6 h, tissue Plasma, dose level Middle): 0.9 | A/G (Rattus norvegicus [2]; 50 mg/kg, 9 h, tissue Plasma, dose level Middle): 0.9 | A/G (Rattus norvegicus [2]; 50 mg/kg, 24 h, tissue Plasma, dose level Middle): 0.9 | A/G (Rattus norvegicus [2]; 150 mg/kg, 3 h, tissue Plasma, dose level High): 0.9 | A/G (Rattus norvegicus [2]; 150 mg/kg, 6 h, tissue Plasma, dose level High): 0.9 | A/G (Rattus norvegicus [2]; 150 mg/kg, 9 h, tissue Plasma, dose level High): 0.9 | A/G (Rattus norvegicus [2]; 150 mg/kg, 24 h, tissue Plasma, dose level High): 0.9

CS(=O)(=O)Nc1ccc([N+](=O)[O-])cc1Oc1ccccc1 [NIMESULIDE]
MCH (Rattus norvegicus [1]; [3]): 21.3 pg | A/G (Rattus norvegicus [1]; [3]): 2.7 | MCH (Rattus norvegicus [1]; [5]): 21.3 pg | A/G (Rattus norvegicus [1]; [4]): 2.4 | A/G (Rattus norvegicus [1]; [5]): 2.1 | A/G (Rattus norvegicus [1]; [6]): 2.1 | A/G (Rattus norvegicus [1]; 10 mg/kg, 72 h, dose level Low, time 3 day): 2.6 | A/G (Rattus norvegicus [1]; 10 mg/kg, […], dose level Low, time 7 day): 2.3 | A/G (Rattus norvegicus [1]; 10 mg/kg, […], dose level Low, time 14 day): 2 | A/G (Rattus norvegicus [1]; 10 mg/kg, […], dose level Low, time 28 day): 2 | A/G (Rattus norvegicus [1]; 30 mg/kg, 72 h, dose level Middle, time 3 day): 2.7 | A/G (Rattus norvegicus [1]; 30 mg/kg, […], dose level Middle, time 7 day): 2.3 | A/G (Rattus norvegicus [1]; 30 mg/kg, […], dose level Middle, time 14 day): 2.2 | A/G (Rattus norvegicus [1]; 30 mg/kg, […], dose level Middle, time 28 day): 1.8 | A/G (Rattus norvegicus [1]; 100 mg/kg, 72 h, dose level High, time 3 day): 2.8 | A/G (Rattus norvegicus [1]; 100 mg/kg, […], dose level High, time 7 day): 2 | A/G (Rattus norvegicus [1]; 100 mg/kg, […], dose level High, time 14 day): 2 | A/G (Rattus norvegicus [1]; 100 mg/kg, […], dose level High, time 28 day): 2.2 | A/G (Rattus norvegicus [2]; [7]): 2.4 | A/G (Rattus norvegicus [2]; [8]): 2.4 | A/G (Rattus norvegicus [2]; [9]): 3 | A/G (Rattus norvegicus [2]; [10]): 2.9 | MCH (Rattus norvegicus [2]; 30 mg/kg, 3 h, dose level Low): 21.3 pg | A/G (Rattus norvegicus [2]; 30 mg/kg, 3 h, tissue Plasma, dose level Low): 2.6 | A/G (Rattus norvegicus [2]; 30 mg/kg, 6 h, tissue Plasma, dose level Low): 2.5 | A/G (Rattus norvegicus [2]; 30 mg/kg, 9 h, tissue Plasma, dose level Low): 2.9 | MCH (Rattus norvegicus [2]; 30 mg/kg, 24 h, dose level Low): 21.3 pg | A/G (Rattus norvegicus [2]; 30 mg/kg, 24 h, tissue Plasma, dose level Low): 2.7 | A/G (Rattus norvegicus [2]; 100 mg/kg, 3 h, tissue Plasma, dose level Middle): 3 | A/G (Rattus norvegicus [2]; 100 mg/kg, 6 h, tissue Plasma, dose level Middle): 2.4 | A/G (Rattus norvegicus [2]; 100 mg/kg, 9 h, tissue Plasma, dose level Middle): 3 | A/G (Rattus norvegicus [2]; 100 mg/kg, 24 h, tissue Plasma, dose level Middle): 2.6 | A/G (Rattus norvegicus [2]; 300 mg/kg, 3 h, tissue Plasma, dose level High): 2.9 | A/G (Rattus norvegicus [2]; 300 mg/kg, 6 h, tissue Plasma, dose level High): 2.5 | A/G (Rattus norvegicus [2]; 300 mg/kg, 9 h, tissue Plasma, dose level High): 3 | A/G (Rattus norvegicus [2]; 300 mg/kg, 24 h, tissue Plasma, dose level High): 3
